Tests used:
Assay type in all cases: cell-based
Adenosine receptor A3 [1] = target: T1, Adenosine receptor A3 (Homo sapiens, UniProt P0DMS8); test: Irreversible displacement of [3H]PSB11 from human A3 adenosine receptor expressed in CHO cell membranes assessed as association rate constant measured up to 240 mins by scintillation spectrometry
Adenosine receptor A3 [2] = target: T1, Adenosine receptor A3; test: Irreversible displacement of [3H]PSB11 from human A3 adenosine receptor expressed in CHO cell membranes assessed as dissociation rate constant measured up to 240 mins by scintillation spectrometry
Adenosine receptor A3 [3] = target: T1, Adenosine receptor A3; test: Irreversible displacement of [3H]PSB11 from human A3 adenosine receptor expressed in CHO cell membranes assessed as residence time measured up to 240 mins by scintillation spectrometry
Homo sapiens = species on record: Homo sapiens; test: Selectivity ratio of IC50 for displacement of [3H]PSB11 from human A3 adenosine receptor transiently expressed in CHOK1 cell membranes to IC50 for displacement of [3H]PSB11 from human A3 adenosine receptor Y265F (7.36) mutant transiently expressed in CHOK1 cell membranes

The chains behind the UniProt entries cited, without tags or fusion partners.
UniProt P0DMS8, whole entry: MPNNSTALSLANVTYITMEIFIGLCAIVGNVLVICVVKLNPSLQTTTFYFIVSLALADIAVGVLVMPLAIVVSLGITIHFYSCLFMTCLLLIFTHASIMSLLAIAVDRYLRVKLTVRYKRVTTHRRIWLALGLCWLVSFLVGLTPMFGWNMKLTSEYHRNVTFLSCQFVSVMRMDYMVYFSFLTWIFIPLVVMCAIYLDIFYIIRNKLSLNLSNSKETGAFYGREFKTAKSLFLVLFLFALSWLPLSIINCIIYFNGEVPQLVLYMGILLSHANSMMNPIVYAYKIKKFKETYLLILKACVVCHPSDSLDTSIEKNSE

## CCCn1c(=O)c2c(nc3cc(OC)ccn32)n(CCCNC(=O)c2ccc(S(=O)(=O)F)cc2)c1=O
Adenosine receptor A3 [1]
  K: 3.48 ×10⁵ /M/min
Adenosine receptor A3 [2]
  K: 1.38 ×10⁻¹² /min
Adenosine receptor A3 [3]
  Time: 7.63 ×10¹¹ min
Homo sapiens
  Ratio IC50: 43

— ChEMBL document CHEMBL4390672, “Development of Covalent Ligands for G Protein-Coupled Receptors: A Case for the Human Adenosine A3 Receptor” (J Med Chem, 2019)
